# Laboratory results: patent US20140045779A1, “COMPOUNDS CONTAINING AN ALICYCLIE STRUCTURE AND ANTI-TUMOR APPLICATION” (priority 2011, published 2014)
# Legend:
# [1] = test system: human lung cancer cell line NCI-H460; assay: In vitro anti-cancer cell experiment (MTT), NCI-H460; conditions: NCI-H460, text
# [2] = test system: human colorectal cancer cell line HT29; assay: In vitro anti-cancer cell experiment (MTT), HT29; conditions: HT29, text
# [3] = test system: human pancreatic cancer cell line Panc-1; assay: In vitro anti-cancer cell experiment (MTT), Panc-1; conditions: Panc-1, text
# [4] = test system: MCF7 cells (breast cancer cells); assay: In vitro anti-cancer cell experiment (MTT), MCF7; conditions: MCF7, text
compound,measurement,setting,value
BrC12CN3CC(Br)(C1)CC(Br)(C3)C2,"IC50, anti-proliferative effect on NCI-H460 cells",[1],7.73 µg/mL
same,"IC50, anti-proliferative effect on HT29",[2],35.62 µg/mL
same,"IC50, anti-proliferative effect on Panc-1 cells",[3],5.23 µg/mL
same,"IC50, anti-proliferative effect on MCF7 cells",[4],19.26 µg/mL
